Marks after values point to notes of the source that are not given here.
How the values were obtained:
Type in all cases: cell-based, human
AU-565 cells = test: In vitro cell viability assay (CellTiter-Glo, 6 days), AU-565; settings: ADC
Method: (§1) FaDu, BxPC-3, HeLa, MV4-11, and RAJI cell lines were obtained from Deutsche Sammlung von Mikroorganismen und Zellkulturen ([…], Germany). Jurkat NucLight Red cells were obtained from Essen BioScience Inc. (Ann Arbor, MI, USA). SK-BR-3 and SK-OV-3 cells were cultured in McCoys 5A medium (Lonza; Walkersville, MD, USA) supplemented with 10% v/w Fetal Bovine Serum (FBS), Heat-inactivated (HI) (Gibco-Life Technologies; Carlsbad, CA) and 80 U/mL Pen/Strep (Gibco-Life Technologies), at 37° C. in a humidified incubator under 5% CO2 atmosphere. SW-620 cells were similarly maintained in RPMI 1640 medium (Lonza), containing 10% v/w FBS HI and 80 U/mL Pen/Strep. A-549 cells were similarly maintained in F-12K Nutrient Mixture (1×) (Gibco-Life Technologies) media supplemented with 80 U/mL Pen/Strep and 5% v/w FBS, which was Qualified (Q) (Gibco-Life Technologies). BT-474 and AU-565 cells were similarly maintained in RPMI 1640 medium (Lonza), containing 10% v/w FBS, which was Qualified (Q) (Gibco-Life Technologies), and 80 U/mL Pen/Strep. […] Jurkat NucLight Red cells were similarly maintained in RPMI 1640 medium (Lonza), containing 10% v/w FBS HI, 80 U/mL Pen/Strep and 0.5 μg/mL Puromycin (Gibco-Life Technologies). FaDu cells were cultured in EMEM medium (Lonza) supplemented with 10% v/w FBS HI (Gibco-Life Technologies), 1× GlutaMAX (Gibco-Life Technologies), and 80 U/mL Pen/Strep (Gibco-Life Technologies), at 37° C. in a humidified incubator under 5% CO2 atmosphere.
(§2) After an overnight incubation, 10 serial log 10 dilutions of the free drugs were made in DMSO (Sigma-Aldrich). These free drug dose-response curves were 10-times further diluted in complete growth medium. For the ADCs according to the invention 10 serial log 10 dilutions were made in complete growth medium. 10 μL of a composition comprising a free drug or an ADC according to the invention was added to the assay plate (final DMSO content for free drugs was 1%). […] Cell viability was assessed after 6 days using a luminescent assay kit (CellTiter-Glo™ (CTG), Promega Corporation) according to the manufacturer's instructions. Percentage cell survival was calculated by dividing the measured luminescence for each free drug or ADC according to the concentration with the average mean of untreated cells (1% or 0.1% DMSO control (for free drugs) or 100% complete growth medium (for ADCs)) multiplied by 100.
(§3) Curves were fitted by non-linear regression using the sigmoidal dose-response equation with variable slope (four parameters) using curve-fitting software (GraphPad Prism, version 9.4.0 for Windows, GraphPad, San Diego, CA or Electronic Laboratory Notebook (ELN) add-in BioAssay, version 19.1.0.0218, Perkin Elmer, Waltham, MA). Relative IC50 values were calculated as the concentration that gives a response halfway between bottom and top of the curve, when using a 4-parameter logistic fit. Data were reported as mean IC50 value of at least one experiment performed in duplicate.

SK-BR-3 cells = test: In vitro cell viability assay (CellTiter-Glo, 6 days), SK-BR-3; settings: HER2-positive SK-BR-3 cells; trastuzumab DAR8-conjugates
Method: as §1, §2, §3

SW-620 cells = test: In vitro cell viability assay (CellTiter-Glo, 6 days), SW-620; settings: ADC; Table 3a; HER2-negative cell line
Method: (§4) Human tumor cell lines SK-BR-3, SW-620, A-549, BT-474, Jurkat Clone E6-1, AU-565, and SK-OV-3 were obtained from American Type Culture Collection (Rockville, MD, USA). FaDu, BxPC-3, HeLa, MV4-11, and RAJI cell lines were obtained from Deutsche Sammlung von Mikroorganismen und Zellkulturen ([…], Germany). Jurkat NucLight Red cells were obtained from Essen BioScience Inc. (Ann Arbor, MI, USA). SK-BR-3 and SK-OV-3 cells were cultured in McCoys 5A medium (Lonza; Walkersville, MD, USA) supplemented with 10% v/w Fetal Bovine Serum (FBS), Heat-inactivated (HI) (Gibco-Life Technologies; Carlsbad, CA) and 80 U/mL Pen/Strep (Gibco-Life Technologies), at 37° C. in a humidified incubator under 5% CO2 atmosphere. SW-620 cells were similarly maintained in RPMI 1640 medium (Lonza), containing 10% v/w FBS HI and 80 U/mL Pen/Strep. A-549 cells were similarly maintained in F-12K Nutrient Mixture (1×) (Gibco-Life Technologies) media supplemented with 80 U/mL Pen/Strep and 5% v/w FBS, which was Qualified (Q) (Gibco-Life Technologies). BT-474 and AU-565 cells were similarly maintained in RPMI 1640 medium (Lonza), containing 10% v/w FBS, which was Qualified (Q) (Gibco-Life Technologies), and 80 U/mL Pen/Strep. Jurkat Clone E6-1, BxPC-3, HeLa, MV4-11, and RAJI cells were similarly maintained in RPMI 1640 medium (Lonza), containing 10% v/w FBS HI and 80 U/mL Pen/Strep. Jurkat NucLight Red cells were similarly maintained in RPMI 1640 medium (Lonza), containing 10% v/w FBS HI, 80 U/mL Pen/Strep and 0.5 μg/mL Puromycin (Gibco-Life Technologies). FaDu cells were cultured in EMEM medium (Lonza) supplemented with 10% v/w FBS HI (Gibco-Life Technologies), 1× GlutaMAX (Gibco-Life Technologies), and 80 U/mL Pen/Strep (Gibco-Life Technologies), at 37° C. in a humidified incubator under 5% CO2 atmosphere.
as §2, with “Cells in complete growth medium were plated in 96-well plates (90 μL/well) and incubated at 37° C., 5% CO2 at the following cell densities: 6500 SK-BR-3, 4000 SW-620, 2500 A-549, 10000 BT-474, 3000 Jurkat Clone E6-1, 5000 AU-565, 1250 FaDu, 1250 BxPC-3, 1000 HeLa, 7500 MV4-11, 1000 RAJI, 3000 Jurkat NucLight Red, and 4000 SK-OV-3 cells per well. After” for “After”
as §3

SK-OV-3 cells = test: In vitro cell viability assay (CellTiter-Glo, 6 days), SK-OV-3; settings: ADC; Table 3a
Method: (§5) FaDu, BxPC-3, HeLa, MV4-11, and RAJI cell lines were obtained from Deutsche Sammlung von Mikroorganismen und Zellkulturen ([…], Germany). Jurkat NucLight Red cells were obtained from Essen BioScience Inc. (Ann Arbor, MI, USA). SK-BR-3 and SK-OV-3 cells were cultured in McCoys 5A medium (Lonza; Walkersville, MD, USA) supplemented with 10% v/w Fetal Bovine Serum (FBS), Heat-inactivated (HI) (Gibco-Life Technologies; Carlsbad, CA) and 80 U/mL Pen/Strep (Gibco-Life Technologies), at 37° C. in a humidified incubator under 5% CO2 atmosphere. SW-620 cells were similarly maintained in RPMI 1640 medium (Lonza), containing 10% v/w FBS HI and 80 U/mL Pen/Strep. […]
(§6) After an overnight incubation, 10 serial log 10 dilutions of the free drugs were made in DMSO (Sigma-Aldrich). […] Cell viability was assessed after 6 days using a luminescent assay kit (CellTiter-Glo™ (CTG), Promega Corporation) according to the manufacturer's instructions. Percentage cell survival was calculated by dividing the measured luminescence for each free drug or ADC according to the concentration with the average mean of untreated cells (1% or 0.1% DMSO control (for free drugs) or 100% complete growth medium (for ADCs)) multiplied by 100. […]

BT-474 cells = test: In vitro cell viability assay (CellTiter-Glo, 6 days), BT-474; settings: ADC; Table 3b; BioAssay software
Method: as §5, §6

[1] = test system: Jurkat NucLight Red cells; test: In vitro cell viability assay (CellTiter-Glo, 6 days), Jurkat NucLight Red; settings: ADC, Table 3c; for Jurkat NucLight Red cells IC50: BioAssay software; for Jurkat NucLight Red cells Efficacy: from minimum % viability at highest concentration
Method: as §4
as §2, with “Cells in complete growth medium were plated in 96-well plates (90 μL/well) and incubated at 37° C., 5% CO2 at the following cell densities: 6500 SK-BR-3, 4000 SW-620, 2500 A-549, 10000 BT-474, 3000 Jurkat Clone E6-1, 5000 AU-565, 1250 FaDu, 1250 BxPC-3, 1000 HeLa, 7500 MV4-11, 1000 RAJI, 3000 Jurkat NucLight Red, and 4000 SK-OV-3 cells per well. After” for “After”
as §3

FaDu cells = test: In vitro cell viability assay (CellTiter-Glo, 6 days), FaDu; settings: ADC; Table 3b; BioAssay software
Method: as §5, §6

BxPC-3 cells = test: In vitro cell viability assay (CellTiter-Glo, 6 days), BxPC-3; settings: ADC; Table 3b; BioAssay software
Method: as §5, §6

## Trastuzumab conjugate DAR8 - XJ9 wild-type conjugation
AU-565 cells; Table 3a
  AU-565 cells IC50: 0.032 µg/mL

## trastuzumab-XT41
SK-BR-3 cells
  cytotoxicity compared with trastuzumab-XT17 DAR8: more active
SW-620 cells
  SW-620 cells Efficacy: 0%
  SW-620 cells IC50: >10 mg/L

## Trastuzumab conjugate DAR8 - XT100 wild-type conjugation
AU-565 cells; Table 3a
  AU-565 cells IC50: 0.024 µg/mL

## Trastuzumab conjugate DAR8 - XT16 wild-type conjugation
SW-620 cells
  SW-620 cells Efficacy: 0%
  SW-620 cells IC50: >10 mg/L

## trastuzumab-XT114
SK-BR-3 cells
  cytotoxicity compared with trastuzumab-XT17 DAR8: more active
AU-565 cells; Table 3a, later experiment, direct comparison between DAR8-XX23 and DAR8-XT114
  AU-565 cells IC50: 0.008 µg/mL

## Trastuzumab conjugate DAR8 - XR4 wild-type conjugation
SW-620 cells
  SW-620 cells Efficacy: 0%
  SW-620 cells IC50: >10 mg/L

## Trastuzumab conjugate DAR8 - XT97 wild-type conjugation
AU-565 cells; Table 3a
  AU-565 cells IC50: 0.042 µg/mL

## trastuzumab-XR16
SK-BR-3 cells
  cytotoxicity compared with trastuzumab-XT17 DAR8: more active

## Trastuzumab conjugate DAR8 - XS23 wild-type conjugation
SW-620 cells
  SW-620 cells Efficacy: 0%
  SW-620 cells IC50: >10 mg/L
SK-OV-3 cells
  SK-OV-3 cells IC50: ~1.137^# μg/mL

## trastuzumab-XX23
SK-BR-3 cells
  cytotoxicity compared with trastuzumab-XT17 DAR8: more active

## trastuzumab-XT94
SK-BR-3 cells
  cytotoxicity compared with trastuzumab-XT17 DAR8: more active
AU-565 cells; Table 3a
  AU-565 cells IC50: ~0.027^$ μg/mL

## trastuzumab-XG2
SK-BR-3 cells
  cytotoxicity compared with trastuzumab-XT17 DAR8: more active
BT-474 cells
  BT-474 cells IC50: 0.036 mg/L
AU-565 cells; Table 3b, BioAssay software
  AU-565 cells IC50: 0.015 µg/mL
[1]
  Jurkat NucLight Red cells IC50: >10^# μg/mL
  Jurkat NucLight Red cells Efficacy: 5%

## Trastuzumab conjugate DAR4 - XT17 wild-type conjugation
SW-620 cells
  SW-620 cells Efficacy: 0%
  SW-620 cells IC50: >10 mg/L

## Trastuzumab conjugate DAR8 - XT31/XT32 wild-type conjugation
SW-620 cells
  SW-620 cells Efficacy: 0%
  SW-620 cells IC50: >10 mg/L

## Trastuzumab conjugate DAR2 - XT17 wild-type conjugation
SW-620 cells
  SW-620 cells Efficacy: 0%
  SW-620 cells IC50: >10 mg/L

## trastuzumab-XT162
SK-BR-3 cells
  cytotoxicity compared with trastuzumab-XT17 DAR8: more active
AU-565 cells; Table 3b, BioAssay software
  AU-565 cells IC50: 0.018 µg/mL
[1]
  Jurkat NucLight Red cells IC50: >10^# μg/mL
  Jurkat NucLight Red cells Efficacy: 0%
FaDu cells
  FaDu cells IC50: >10^# μg/mL
BxPC-3 cells
  BxPC-3 cells IC50: >10^# μg/mL

## trastuzumab-XT46
SK-BR-3 cells
  cytotoxicity compared with trastuzumab-XT17 DAR8: somewhat less active
SW-620 cells
  SW-620 cells Efficacy: 0%
  SW-620 cells IC50: >10 mg/L

## Trastuzumab conjugate DAR8 - XT54 wild-type conjugation
SW-620 cells
  SW-620 cells Efficacy: 0%
  SW-620 cells IC50: >10 mg/L

## trastuzumab-XT123
SK-BR-3 cells
  cytotoxicity compared with trastuzumab-XT17 DAR8: more active
AU-565 cells; Table 3b, BioAssay software
  AU-565 cells IC50: 0.010 µg/mL
[1]
  Jurkat NucLight Red cells IC50: >10^# μg/mL
  Jurkat NucLight Red cells Efficacy: 4%
FaDu cells
  FaDu cells IC50: 6.639 µg/mL
BxPC-3 cells
  BxPC-3 cells IC50: >10^# μg/mL

## trastuzumab-XR12
SK-BR-3 cells
  cytotoxicity compared with trastuzumab-XT17 DAR8: somewhat less active

## trastuzumab-XX19
SK-BR-3 cells
  cytotoxicity compared with trastuzumab-XT17 DAR8: more active

From patent publication US20250114466A1, “ANTIFOLATE LINKER-DRUGS AND ANTIBODY-DRUG CONJUGATES” (BYONDIS B.V., priority 2021, published 2025)
